This data set in a line: Compatibility of lipid triglycerides with HXM solubilization and phospholipid emulsion.

As for `CCCC(=O)OCC(COC(=O)CCC)OC(=O)CCC` [tributyrin], the “ability of triglyceride to solubilize HXM” value was “poorly solubilize HXM”.

The record behind these values is patent US4963363A, “Phospholipid delivery vehicle for aqueous-insoluble active ingredients” (priority 1989, dated 1990).
